According to ChEMBL document CHEMBL2375356, “Design, synthesis and biological evaluation of new classes of thieno[3,2-d]pyrimidinone and thieno[1,2,3]triazine as inhibitor of vascular endothelial growth factor receptor-2 (VEGFR-2)” (Eur J Med Chem, 2013):

System: HUVEC
Test: Antiangiogenic activity in HUVEC assessed as inhibition of VEGF-induced tube formation after 24 hrs by phalloidin-sulforhodamine staining method
Format: functional, cell-based
Conditions: Homo sapiens

Q: How did the inhibition turn out when `O=c1[nH]c(CN2CCCCC2)nc2cc(-c3cn(Cc4ccccc4)c4ccccc34)sc12` was run?
A: Dose-dependent effect
